Results as given in PubChem BioAssay AID2546 (National Center for Advancing Translational Sciences (NCATS), 2010).
Only a part is listed here, and it is no random draw. Records with an inconclusive call do not appear. Activity calls are given as the source filed them. Calls come from the whole dose curve; as a rule, active = well fitted inhibition curve with a large enough effect; inconclusive = small, poorly fitted or top-dose-only effect, or effect the other way; inactive = flat fitted curve, though single readings scatter.

Assay: VP16 counterscreen qHTS for inhibitors of ROR gamma transcriptional activity;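 note: Gal4-VP16 expression switched on by copper sulfate through the metallothionein promoter; nearly all actives have a fitted effect of over 50% in size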
Conditions: Drosophila S2 Gal4-VP16 UAS-luciferase, luminescence, 20 h
Text: NIH Molecular Libraries Probe Production Network [MLPCN]
NIH Chemical Genomics Center [NCGC]
Assay Provider: Dan Littman, New York University
The retinoic acid-related orphan receptor (ROR) gamma is a transcription factor that has a central role in the differentiation of Th17 cells, a subset of T helper cells that secrete the inflammatory cytokines IL-17, IL-17F, and IL-22. Th17 cells have been implicated in graft versus host disease, autoimmune disease and asthma. ROR gamma is induced in naive T helper cells in the presence of TGF-beta combined with IL-6, IL-21, or IL-23, and thereafter directs the expression of the Th17 lineage cytokines. […] Small molecule inhibitors that inhibit components common to the RORgt and VP16 assays, such as the Gal4 DNA binding domain or the UAS luciferase reporter, will be active in both assays and thus scored as nonspecific.
For screening, 600 cells in 4 uL/well were dispensed into white solid 1536-well plates (Grenier) using a solenoid-based dispenser. […] After addition of 1.5 uL Photinus luciferase detection reagent, the plates were incubated 10 min at ambient temperature and then read by a ViewLux (Perkin Elmer) to detect luminescence.
Potency is the fitted concentration of half-maximal effect.

With `CC[n+]1c(/C=C/N(C)c2ccccc2)oc2ccccc21` as the molecule, how does the Potency read?
The Potency was active: 11.2 µM.

Which Potency does the source give for `CC[n+]1c(/C=C/N(C)c2ccccc2)oc2ccc(Cl)cc21` here?
Its Potency is active: 4.47 µM.
